The values below are quoted from earlier work in PMC5368065.

By UniProt entry, the sequences of proteins in these tests, tags left out. Where a name states a change or a piece, a line headed by the entry shows the natural chain unless it says otherwise.
UniProt Q9UPS6: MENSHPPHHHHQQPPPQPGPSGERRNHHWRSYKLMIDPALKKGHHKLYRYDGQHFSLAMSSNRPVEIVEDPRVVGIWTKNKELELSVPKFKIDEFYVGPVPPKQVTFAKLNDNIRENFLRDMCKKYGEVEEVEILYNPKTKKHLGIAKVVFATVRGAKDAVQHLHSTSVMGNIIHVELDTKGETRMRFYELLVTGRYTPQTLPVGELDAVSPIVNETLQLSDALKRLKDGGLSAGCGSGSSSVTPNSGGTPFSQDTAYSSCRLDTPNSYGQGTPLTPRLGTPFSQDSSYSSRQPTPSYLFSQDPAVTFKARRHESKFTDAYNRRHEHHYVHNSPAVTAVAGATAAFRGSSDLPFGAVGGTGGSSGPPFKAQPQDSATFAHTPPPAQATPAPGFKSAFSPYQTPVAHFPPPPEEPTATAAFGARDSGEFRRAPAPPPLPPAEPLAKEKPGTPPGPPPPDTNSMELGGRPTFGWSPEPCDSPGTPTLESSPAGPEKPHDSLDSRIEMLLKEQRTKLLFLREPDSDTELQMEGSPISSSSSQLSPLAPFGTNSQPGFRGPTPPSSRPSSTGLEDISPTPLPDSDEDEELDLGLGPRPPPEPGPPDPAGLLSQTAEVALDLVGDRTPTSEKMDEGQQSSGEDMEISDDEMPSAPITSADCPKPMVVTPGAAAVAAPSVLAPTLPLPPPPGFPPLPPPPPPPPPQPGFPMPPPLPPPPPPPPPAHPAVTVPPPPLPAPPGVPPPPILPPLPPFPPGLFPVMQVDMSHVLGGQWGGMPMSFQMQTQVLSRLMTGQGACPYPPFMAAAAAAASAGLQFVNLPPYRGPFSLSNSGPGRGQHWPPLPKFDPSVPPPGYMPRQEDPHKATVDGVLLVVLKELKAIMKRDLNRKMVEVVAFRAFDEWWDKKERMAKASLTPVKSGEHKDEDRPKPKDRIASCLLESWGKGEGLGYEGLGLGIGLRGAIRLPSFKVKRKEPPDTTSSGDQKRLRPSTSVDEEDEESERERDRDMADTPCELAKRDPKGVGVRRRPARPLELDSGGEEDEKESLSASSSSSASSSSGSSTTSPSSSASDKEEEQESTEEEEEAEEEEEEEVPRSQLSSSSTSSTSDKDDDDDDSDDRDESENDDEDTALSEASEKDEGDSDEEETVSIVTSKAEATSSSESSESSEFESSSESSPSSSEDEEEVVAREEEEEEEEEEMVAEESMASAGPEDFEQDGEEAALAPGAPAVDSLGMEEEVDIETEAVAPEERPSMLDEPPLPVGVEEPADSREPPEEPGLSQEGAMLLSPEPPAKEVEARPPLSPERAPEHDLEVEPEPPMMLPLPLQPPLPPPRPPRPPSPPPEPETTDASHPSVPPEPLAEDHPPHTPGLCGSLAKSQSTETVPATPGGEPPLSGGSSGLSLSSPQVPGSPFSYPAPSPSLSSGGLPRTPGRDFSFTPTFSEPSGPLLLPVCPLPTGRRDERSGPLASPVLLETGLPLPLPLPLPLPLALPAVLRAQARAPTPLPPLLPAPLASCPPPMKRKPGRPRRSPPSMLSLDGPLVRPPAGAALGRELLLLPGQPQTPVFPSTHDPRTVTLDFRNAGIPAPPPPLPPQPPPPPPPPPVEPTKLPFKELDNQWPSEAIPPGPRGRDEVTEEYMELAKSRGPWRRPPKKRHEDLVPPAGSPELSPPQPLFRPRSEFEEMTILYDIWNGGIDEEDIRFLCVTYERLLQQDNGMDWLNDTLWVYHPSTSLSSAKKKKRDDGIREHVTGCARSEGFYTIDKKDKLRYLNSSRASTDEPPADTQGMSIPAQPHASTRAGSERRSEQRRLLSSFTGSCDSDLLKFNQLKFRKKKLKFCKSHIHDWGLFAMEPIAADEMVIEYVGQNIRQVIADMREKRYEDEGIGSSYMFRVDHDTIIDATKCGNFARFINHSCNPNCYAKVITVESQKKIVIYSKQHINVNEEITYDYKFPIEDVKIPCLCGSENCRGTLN

Series [1] concerns the target MLL4 WIN peptide WIN motif (Homo sapiens) (UniProt Q9UMN6).
Series [2] addresses SET1A WIN peptide WIN motif (Homo sapiens) (UniProt O15047).
Series [3] addresses MLL2 WIN peptide WIN motif (Homo sapiens) (UniProt O14686).
Series [4] deals with MLL3 WIN peptide WIN motif (Homo sapiens) (UniProt Q8NEZ4).
Series [5] addresses SET1B WIN peptide WIN motif (Homo sapiens) (UniProt Q9UPS6).
For series [6], the target named is histone H3 tail peptide (Homo sapiens) (UniProt P68431).

A word on the Kd: it is the constant that tells how readily two partners part at equilibrium. For orientation: Ki means the equilibrium dissociation constant of an inhibitor or competing ligand from its target. Take WDR5 (from UniProt P61964): the dissociation constant Kd in series [1] is 88 nM; in series [2], 541 nM; in series [3], 75 nM; in series [4], 54 nM; in series [5], 103 nM. Further, in series [6], the Ki is 20 nM.
